This note sets out measurements from US7629355B2 (priority 2003, dated 2009).

Chains of the proteins cited; added tags and fusions are not shown.
UniProt P35372, whole entry: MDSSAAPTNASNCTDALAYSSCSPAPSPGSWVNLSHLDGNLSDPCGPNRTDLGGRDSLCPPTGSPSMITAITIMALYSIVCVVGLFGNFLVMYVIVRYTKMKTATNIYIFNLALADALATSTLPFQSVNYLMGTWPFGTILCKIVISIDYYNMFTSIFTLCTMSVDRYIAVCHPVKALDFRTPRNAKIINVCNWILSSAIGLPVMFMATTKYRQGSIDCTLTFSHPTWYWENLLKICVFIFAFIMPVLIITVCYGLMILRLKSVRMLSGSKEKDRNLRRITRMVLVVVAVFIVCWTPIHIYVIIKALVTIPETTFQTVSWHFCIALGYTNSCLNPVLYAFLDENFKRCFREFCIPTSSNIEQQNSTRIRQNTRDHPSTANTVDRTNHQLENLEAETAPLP

For one test, the target named is μ receptor (Homo sapiens, UniProt P35372). Type of test: biochemical.
Another test has as its target T1, δ receptor (Homo sapiens, UniProt P41143).
T1 construct: expressed in transfected cells; host or cells: CHO cells
Format: biochemical.

With (−)SKF 10,047, the 50% effective concentration (EC50) on μ receptor was greater than 10000 nM. Moreover, on δ receptor, the EC50 stood at 9.4 ± 2.3 nM and the “δ % Stim” value was 70 ± 9%.

The term EC50 denotes the concentration giving half of the maximal effect.
